Source: patent publication US6506876B1, “LTA4 hydrolase inhibitor pharmaceutical compositions and methods of use” (G.D. Searle & Co., priority 1994, dated 2003)
Marks after values point to notes of the source that are not given here.

The chains behind the UniProt entries cited, without tags or fusion partners.
UniProt P09960, whole entry, looked up: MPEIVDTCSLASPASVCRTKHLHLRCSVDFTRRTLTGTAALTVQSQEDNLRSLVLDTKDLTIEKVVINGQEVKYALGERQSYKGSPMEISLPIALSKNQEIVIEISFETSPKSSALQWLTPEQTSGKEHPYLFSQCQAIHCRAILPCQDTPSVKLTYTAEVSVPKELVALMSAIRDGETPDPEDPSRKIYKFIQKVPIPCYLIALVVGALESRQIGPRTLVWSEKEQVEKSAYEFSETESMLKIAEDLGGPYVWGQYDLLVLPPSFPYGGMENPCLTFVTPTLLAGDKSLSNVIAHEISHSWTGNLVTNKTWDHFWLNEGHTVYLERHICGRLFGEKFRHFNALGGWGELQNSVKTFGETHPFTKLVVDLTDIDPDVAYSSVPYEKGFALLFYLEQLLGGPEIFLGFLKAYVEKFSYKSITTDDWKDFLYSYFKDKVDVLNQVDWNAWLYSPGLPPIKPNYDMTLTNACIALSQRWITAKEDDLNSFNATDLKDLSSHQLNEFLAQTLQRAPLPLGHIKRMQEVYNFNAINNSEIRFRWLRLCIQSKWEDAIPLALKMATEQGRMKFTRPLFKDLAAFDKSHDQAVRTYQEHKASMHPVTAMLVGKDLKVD

Key:
[1] = test system: LTB4 production in mouse blood (LTA4 hydrolase); experiment: Ex vivo LTB4 production by calcium ionophore stimulated mouse blood after oral dosing; assay type: in vivo; settings: oral gavage
[2] = target: LTB4 production in human whole blood (LTA4 hydrolase) (Homo sapiens, UniProt P09960); experiment: LTB4 production by calcium ionophore stimulated human blood; assay type: cell-based; settings: read-out: Inhibition of Calcium Ionophore-Induced LTB4 Production in Human Blood IC50 HWB, A23187

c1ccc(Cc2ccc(OCCn3cnc4ncccc43)cc2)cc1
Murine Ex Vivo LTB4 Inhibition % I LTB4 ([1]; 1 hour after administration of 50 mg/kg (*)): 92%*

Cn1c(=O)c2ncn(CCOc3ccc(Cc4ccccc4)cc3)c2n(C)c1=O
Murine Ex Vivo LTB4 Inhibition % I LTB4 ([1]; 1 hour after administration of 10 mg/kg): 0% | IC50 [2]: 260 nM

Nc1ccc2c(c1)ncn2CCOc1ccc(Cc2ccccc2)cc1
Murine Ex Vivo LTB4 Inhibition % I LTB4 ([1]; 1 hour after administration of 10 mg/kg, tested form: 0.25 H2O): 28%
